Assays:
[1] = biological target: T1, human PD-L1-Fc (R&D Systems, cat#156-B7) (human, UniProt Q9NZQ7 19-239); experiment: blocking ELISA, plate coated with B7-1-Fc; inhibition of PD-L1 binding to B7-1
T1 construct: Bought reagent; also called PD-L1 ligand; not shown: Fc part of the bought fusion protein
Excerpt: Similarly, a PD-L1/B7-1 blocking assay may be performed by using plates coated with 1 pg/ml B7-1-Fc (R&D Systems, cat#140-B1-100).

The chains behind the UniProt entries cited, without tags or fusion partners. Residues count along the entry.
UniProt Q9NZQ7, 19-239 limits assumed: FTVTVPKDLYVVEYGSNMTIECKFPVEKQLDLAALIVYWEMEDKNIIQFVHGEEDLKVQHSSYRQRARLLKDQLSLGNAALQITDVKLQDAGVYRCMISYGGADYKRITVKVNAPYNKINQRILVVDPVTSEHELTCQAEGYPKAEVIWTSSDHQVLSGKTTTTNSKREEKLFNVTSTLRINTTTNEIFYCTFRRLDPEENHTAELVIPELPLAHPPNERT
UniProt Q9NZQ7, 19-290 limits assumed: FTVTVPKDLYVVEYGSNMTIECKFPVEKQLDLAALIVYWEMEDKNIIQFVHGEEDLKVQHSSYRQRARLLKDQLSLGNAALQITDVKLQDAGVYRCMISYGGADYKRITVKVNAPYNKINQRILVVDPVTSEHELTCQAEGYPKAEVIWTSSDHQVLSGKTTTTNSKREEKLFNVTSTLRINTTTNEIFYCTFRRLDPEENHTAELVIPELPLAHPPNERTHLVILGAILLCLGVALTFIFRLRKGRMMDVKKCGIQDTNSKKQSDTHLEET
UniProt Q15116, 25-288 limits assumed: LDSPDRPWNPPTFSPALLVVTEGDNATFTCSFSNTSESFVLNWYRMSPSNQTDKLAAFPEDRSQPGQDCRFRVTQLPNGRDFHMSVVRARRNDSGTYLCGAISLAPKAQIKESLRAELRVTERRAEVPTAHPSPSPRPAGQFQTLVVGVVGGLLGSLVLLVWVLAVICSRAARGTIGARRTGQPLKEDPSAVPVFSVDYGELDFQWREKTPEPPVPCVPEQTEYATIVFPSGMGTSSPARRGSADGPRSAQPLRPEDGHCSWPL
UniProt Q15116, 25-167 limits assumed: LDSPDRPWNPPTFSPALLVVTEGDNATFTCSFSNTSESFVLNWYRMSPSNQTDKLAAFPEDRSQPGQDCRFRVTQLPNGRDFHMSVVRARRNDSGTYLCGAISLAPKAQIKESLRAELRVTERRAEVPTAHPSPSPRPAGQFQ

PD-1 expressed on cells = PD-1 expressed on cells (UniProt Q15116 25-288, limits assumed); experiment: cell-based or functional assay
PD-L1 expressed on cells = PD-L1 expressed on cells (UniProt Q9NZQ7 19-290, limits assumed); experiment: cell-based or functional assay
[2] = biological target: T2, human PD-1-Fc (R&D Systems, cat. #1086-PD) (human, UniProt Q15116 25-167, biotinylated in the blocking assay of Example 4 (sites not given)); experiment: blocking ELISA, biotinylated PD-1-Fc mixed with antibody, plate coated with PD-L2-Fc, streptavidin-HRP
T2 construct: Bought reagent; it is treated here as the same molecule, biotinylated; also called biotinylated PD-1-Fc fusion protein; PD-1 receptor; not shown: Fc part of the bought fusion protein

[3] = biological target: T2, human PD-1-Fc (R&D Systems, cat. …); experiment: ELISA, plate coated with human PD-1-Fc, detection with anti-human IgG F(ab')2-HRP
[4] = biological target: T1, human PD-L1-Fc (R&D Systems, cat#156-B7); experiment: ELISA, plate coated with human PD-L1-Fc, detection with anti-human IgG F(ab')2-HRP

IC50 [1]: 0.75 nM
EC50, PD-1/NFAT Reporter Jurkat T cell assay with PD-L1/PD-L2 double positive T cell activator CHO cells (PD-1 expressed on cells): 0.181 nM
EC50, PD-1/NFAT Reporter Jurkat T cell assay with PD-L1 positive T cell activator CHO cells (PD-1 expressed on cells): 0.12 nM
double positive events (CFSE+/CTDR+) by flow cytometry, cell bridging (PD-1 expressed on cells): ≤ 4 fold
EC50, PD-1/NFAT Reporter Jurkat T cell assay with PD-L1 positive T cell activator CHO cells (PD-L1 expressed on cells): 0.12 nM
double positive events (CFSE+/CTDR+) by flow cytometry, cell bridging (PD-L1 expressed on cells): ≤ 4 fold
IC50 [2]: 2.27 nM
EC50 [3]: 0.0802 nM
EC50 [4]: 0.455 nM
B1: Antibody v3.2 (bispecific antibody, human IgG1, kappa, lambda, L234A L235A)
heavy 1: not shown
light 1: not shown
heavy 2: not shown
light 2: DIQMTQSPSSVSASVGDRVTITCRASQGISSWLAWYQQKPGKAPKLLISAASSLQSGVPSRFSGSGSGTDFTLTISSLQPEDFATYYCQQANHLPFTFGGGTKVEIKRTVAAPSVFIFPPSDEQLKSGTARVGCLLNNFYPREAKVQWKVDNALQSGNSQESVTEQDSKDSTYSLRSTLTLSKADYEKHKVYACEVTHQGLSSPVTKSFNRGEC

— patent publication US20190010232A1 (Eli Lilly, published 2019)
